Patent US5466700A (priority 1993, dated 1995)

System: patients
Conditions: small oral dose, preoperative

With CN1C(=O)C(O)N=C(c2ccccc2)c2cc(Cl)ccc21 (stereo not shown) the “loss of consciousness with oral benzodiazepine premedication” value was “did not lead to loss of consciousness”.
